Experimental data as given in publication PMC10797628.

By UniProt entry, the sequences of proteins in these tests, tags left out.
UniProt P08908, whole entry: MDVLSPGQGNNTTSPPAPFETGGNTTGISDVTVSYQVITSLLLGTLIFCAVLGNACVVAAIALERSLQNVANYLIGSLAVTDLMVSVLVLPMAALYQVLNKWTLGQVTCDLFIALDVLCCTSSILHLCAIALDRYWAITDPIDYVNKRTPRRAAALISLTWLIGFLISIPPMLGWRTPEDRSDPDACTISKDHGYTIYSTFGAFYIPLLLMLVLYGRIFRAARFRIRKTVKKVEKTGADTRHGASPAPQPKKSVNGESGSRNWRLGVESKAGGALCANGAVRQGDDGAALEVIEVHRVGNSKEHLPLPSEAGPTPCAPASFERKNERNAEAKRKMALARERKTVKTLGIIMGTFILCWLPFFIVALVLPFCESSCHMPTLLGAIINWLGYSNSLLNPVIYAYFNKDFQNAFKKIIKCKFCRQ

Molecular target: T1, human 5-HT1A receptor (Homo sapiens, UniProt P08908)
T1 construct: host or cells: HEK293T
Test: cAMP accumulation (LANCE Ultra TR-FRET) in HEK293T cells, WT 5-HT1A
Type: cell-based
Conditions: normalized to basal (0%) and 10 μM 5-CT (100%)

NCCc1c[nH]c2ccc(C(N)=O)cc12 [5-CT, 5-carboxamidotryptamine, reference compound]
5-HT1A EMAX (%): 100 ± 2%
